Screening data (PubChem BioAssay)
UUG fidelity – yeast start codon fidelity modulation; AID 602363; activity score, % at 18.7 µM; S. cerevisiae UUG-firefly luciferase reporter, luminescence/redox ratio; 0.13% of 350,000 active;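 active means replicate mean at a twofold rise or more, about +100% in these data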;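 further: firefly luciferase made from a UUG start codon reports start codon fidelity; reporter light over untreated wells divided by growth signal over untreated wells; some hits fall short of that in this replicate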
HDAC3 inhib – HDAC3 deacetylase inhibitors, primary screen, biochemical, fluorescence, cell-free homogeneous; inhibition, % at 8.3 µM; recombinant HDAC3, fluorogenic peptide/trypsin coupled; hit rate 0.15% among 320,000; Histone deacetylase 3 (Homo sapiens), O15379; in the data active means inhibition above about 26%, passing the limit was not always enough; inconclusive means no clear call, values can overlap the other calls
NALP1 inh – NALP1 inflammasome inhibitors in reconstituted yeast, colorimetric, S. cerevisiae, triplicate retest. hit rate 0.61% among 280,000. AID 2071, 2009. inhibition, % at 10 µM. S. cerevisiae NALP1/ASC/caspase-1 growth, X-gal OD620, 72 h; in the data active means inhibition mostly above about 24%, no sharp cut-off; inactive means mostly below about 32%
ALR H2O2 inh – inhibitors of human sulfhydryl oxidase ALR; 290,000 tested, 3.8% active; inhibition, % (test concentration not listed); AID 485317; P55789; purified ALR, DTT oxidation, H2O2 HRP-luminol luminescence;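 active = mean and each replicate at 75% or more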;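 also: stock transfer was 7.5 nL into about 7.5 µL; 0% = neutral wells and 100% = wells with inactivated enzyme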
MC4R antag cAMP – MC4R antagonists of cAMP signaling, primary screen, cell-based, TR-FRET, antagonist arm of biased-ligand search. hit rate 0.48% among 360,000. AID 540295, 2011. MC4R-expressing cells, MTII-stimulated cAMP, LANCE TR-FRET. inhibition, % at 6.5 µM;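 active means inhibition above its plate's cutoff, the mean of tested wells on that plate plus 3 SD, cut at about 29% in these data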;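 further: 0% = Melanotan II alone and 100% = Melanotan II plus saturating MCL0020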
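System: U2OS-MC4R stable cell line; Technique: Eu-cAMP/anti-cAMP TR-FRET, emission 671 nm; Repeats: single well per compound; Also added: Melanotan II; Dosing: one concentration, 6.5 µM nominal; Schedule: 30-min compound, 1-h challenge, 1-h detection, room temperature.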
MC4R barr agon – MC4R agonists recruiting beta-arrestin, primary screen, cell-based, luminescence, agonist arm of biased-ligand search; U2OS MC4R beta-arrestin complementation; percent of melanotan II response, DMSO zero; activation, % at 8.9 µM; hit rate 0.98% among 360,000; AID 540308, 2011;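 active means activation above a per-plate cutoff, the mean activation of sample wells on that plate plus 3 SD, cut at about 8% in these data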
cAMP nonselect – nonselective cAMP signaling inhibitors, parental cells, counter-screen for MC4R biased antagonist project, cell-based, TR-FRET, U2OS, forskolin, triplicate; shares compounds with MC4R antag cAMP; AID 602193, 2012; LANCE TR-FRET; inhibition, % at 6.5 µM; hit rate 26% among 1,600;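 active means mean inhibition over triplicates above the low-control well mean plus 3 SD, set per campaign, cut at about 13% in these data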;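 further: signal is single emission at 671 nm which falls as cellular cAMP rises; 0% = forskolin-stimulated wells and 100% = buffer without forskolin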
MC4R cAMP antag – MC4R cAMP antagonists, retest, confirmation, cell-based, TR-FRET; MC4R-expressing cells, MTII-stimulated cAMP; hit rate 27% among 1,600; inhibition, % at 6.5 µM; shares compounds with MC4R antag cAMP; in the data active means inhibition above about 29%;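 further: 0% = agonist stimulated wells alone and 100% = agonist stimulated wells plus saturating reference antagonist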
* hit, by the source's call; ? = inconclusive; . = no result. Sampled rows, rich in hits. Any-hit rate of the full collection: about 4.2%.

nr | Structure | UUG fidelity | HDAC3 inhib | NALP1 inh | ALR H2O2 inh
1 | COc1ccc([N+](=O)[O-])c(S(=O)(=O)c2ccccc2)n1 | -39 | 0 | 6 | 97*
2 | O=[N+]([O-])c1cccnc1S(=O)(=O)c1ccccc1 | -29 | -1 | 25 | 6
3 | COc1ccccc1S(=O)(=O)c1ccccc1[N+](=O)[O-] | -13 | 10 | 20 | -14
4 | C[C@H](CO)N1C[C@H](C)[C@@H](CN(C)C(=O)CCC(F)(F)F)OCCCC[C@H](C)Oc2ccc(NC(=O)c3ccccc3)cc2C1=O | 27 | . | . | .
5 | COc1ccc(NC(=O)C(Cl)=C(Cl)Cl)cn1 | . | . | -20 | .
6 | COc1ccc(NC(=O)/C(Cl)=C(/Cl)S(=O)Cc2ccc(Cl)cc2)cn1 (stereo not drawn) | . | . | -2 | .
7 | COc1ccc(NC(=O)/C(Cl)=C(/Cl)S(=O)(=O)Cc2ccccc2)cn1 | -7 | . | -3 | .
8 | C[C@H](CO)N1C[C@H](C)[C@H](CN(C)C(=O)Nc2ccc(C(F)(F)F)cc2)Oc2ccc(NC(=O)Cn3cnnn3)cc2C1=O | 6 | . | . | .
9 | C[C@@H]1CCCCO[C@@H](CN(C)C(=O)Nc2ccccc2)[C@@H](C)CN([C@H](C)CO)C(=O)c2cc(NC(=O)Nc3ccc4c(c3)OCO4)ccc2O1 | 1 | . | . | .
10 | CC(C)CC#Cc1cnc2c(c1)C(=O)N([C@H](C)CO)C[C@H](C)[C@H](CN(C)Cc1ccccc1C(=O)O)O2 | 12 | . | . | .

nr | MC4R antag cAMP | MC4R barr agon | cAMP nonselect | MC4R cAMP antag
1 | 29* | -4 | 29* | 25
2 | 33* | 2 | 14* | 38*
3 | 1 | 0 | . | .
4 | . | . | . | .
5 | 18 | -3 | . | .
6 | 76* | -7 | 11 | 54*
7 | 56* | -3 | 34* | 49*
8 | . | . | . | .
9 | . | . | . | .
10 | . | . | . | .

Filtered by structure: the compounds so far containing a CF3 group (2)
nr | Structure | UUG fidelity | HDAC3 inhib | NALP1 inh | ALR H2O2 inh
4 | C[C@H](CO)N1C[C@H](C)[C@@H](CN(C)C(=O)CCC(F)(F)F)OCCCC[C@H](C)Oc2ccc(NC(=O)c3ccccc3)cc2C1=O | 27 | . | . | .
8 | C[C@H](CO)N1C[C@H](C)[C@H](CN(C)C(=O)Nc2ccc(C(F)(F)F)cc2)Oc2ccc(NC(=O)Cn3cnnn3)cc2C1=O | 6 | . | . | .

nr | MC4R antag cAMP | MC4R barr agon | cAMP nonselect | MC4R cAMP antag
4 | . | . | . | .
8 | . | . | . | .

Next section.
nr | Structure | UUG fidelity | HDAC3 inhib | NALP1 inh | ALR H2O2 inh
11 | COc1ccc(N2CCN(C(c3cccs3)C(C)NC(=O)c3ccc4c(c3)OCO4)CC2)cc1 (stereo not drawn) | . | 5 | 27 | 51
12 | COc1ccc(N2CCN(C(c3cccs3)C(C)NC(=O)c3ccco3)CC2)cc1 (stereo not drawn) | 50 | 0 | -2 | .
13 | O=C(NCc1ccc2c(c1)OCO2)C(=O)NCC(c1ccco1)N1CCN(c2ccccc2)CC1 (stereo not drawn) | . | 5 | -15 | -1
14 | COc1ccc(N2CCN(C(CNC(=O)C(=O)NCc3ccc4c(c3)OCO4)c3ccco3)CC2)cc1 (stereo not drawn) | . | -2 | -14 | -8
15 | O=C(C[C@H]1CC[C@@H]2[C@H](COC[C@H](O)CN2S(=O)(=O)c2ccccc2)O1)NCc1ccc2c(c1)OCO2 | 11 | . | . | .
16 | CCOc1ccccc1NC(=O)c1nc(S(=O)(=O)Cc2cccc(C)c2)ncc1Cl | -17 | 7 | 9 | -9
17 | CC(=O)Nc1ccc(NC(=O)c2nc(S(=O)(=O)Cc3ccccc3)ncc2Cl)cc1 | 7 | 1 | 9 | 2
18 | O=C(NCc1ccccc1)c1nc(S(=O)(=O)Cc2ccccc2)ncc1Cl | 1 | 6 | 4 | -3
19 | O=C(NCc1ccccc1)c1c(Cl)nc(Cl)c(Cl)c1Cl | . | 10 | -24 | 12
20 | CCc1nnc(NC(=O)c2nc(S(=O)(=O)Cc3ccccc3)ncc2Cl)s1 | -12 | 5 | 0 | 12

nr | MC4R antag cAMP | MC4R barr agon | cAMP nonselect | MC4R cAMP antag
11 | 34* | 1 | -3 | -10
12 | 4 | -2 | . | .
13 | 3 | -2 | . | .
14 | 29* | 3 | 4 | -4
15 | . | . | . | .
16 | 22 | -2 | . | .
17 | 18 | -4 | . | .
18 | 48* | -4 | 34* | 60*
19 | 64* | 0 | 45* | 64*
20 | 30* | -1 | 12 | 9

New compounds follow.
nr | Structure | UUG fidelity | HDAC3 inhib | NALP1 inh | ALR H2O2 inh
21 | CCc1nnc(NC(=O)c2nc(S(=O)(=O)Cc3cccc(C)c3)ncc2Cl)s1 | -22 | 3 | -14 | 8
22 | CCc1nnc(NC(=O)c2nc(S(=O)(=O)Cc3ccc(C)cc3)ncc2Cl)s1 | -16 | . | -25 | ?
23 | C[C@H](CO)N1C[C@H](C)[C@H](CN(C)CC2CCOCC2)Oc2cc(C#Cc3ccccc3F)ccc2S1(=O)=O | 9 | . | . | .
24 | C/C(=N\NC(=O)CNc1cccc(Cl)c1C)c1cccs1 | -4 | 1 | -1 | 14
25 | COc1ccccc1NCC(=O)N/N=C(\C)c1cccs1 | . | 0 | 7 | 30
26 | Cn1c(SCC(=O)Nc2cccc(F)c2)nnc1-c1cc2ccccc2o1 | -19 | -3 | -10 | -4
27 | Cc1ccc(N2C(=O)c3cccc([N+](=O)[O-])c3C2=O)cc1C | 0 | 1 | 4 | .
28 | COCC(C)NC(=O)c1cc(OC)cc(OC)c1 (stereo not drawn) | . | -1 | 11 | -3
29 | COCC(C)NC(=O)c1cccc(Cl)c1 (stereo not drawn) | -7 | -5 | 2 | -3
30 | C[C@H]1CN([C@@H](C)CO)C(=O)Cc2cc(NC(=O)c3ccncc3)ccc2O[C@@H]1CN(C)C(=O)Nc1cccc2ccccc12 | -12 | . | . | .

nr | MC4R antag cAMP | MC4R barr agon | cAMP nonselect | MC4R cAMP antag
21 | 39* | 0 | 20* | 32*
22 | 31* | -6 | 23* | 39*
23 | . | . | . | .
24 | -10 | 5 | . | .
25 | 40* | 2 | 2 | 10
26 | 31* | 8 | 4 | 3
27 | 42* | -1 | 23* | 45*
28 | 36* | 0 | 1 | 5
29 | 5 | -2 | . | .
30 | . | . | . | .

Further compounds follow.
nr | Structure | UUG fidelity | HDAC3 inhib | NALP1 inh | ALR H2O2 inh
31 | C=CCSc1nc2ccccc2c(=O)n1C1CCOC(C)(C)C1 (stereo not drawn) | . | 1 | -8 | 1
32 | CCSc1nc2ccccc2c(=O)n1C1CCOC(C)(C)C1 (stereo not drawn) | . | 6 | -4 | 1
33 | CCN1C(=O)C2(C(C(=O)c3ccc(C)o3)=C(O)C(=O)N2CCCN2CCOCC2)c2ccccc21 (stereo not drawn) | -11 | -1 | 16 | -9
34 | CCN1C(=O)C2(C(C(=O)c3cc4ccccc4o3)=C(O)C(=O)N2CCCN2CCOCC2)c2ccccc21 (stereo not drawn) | . | 4 | . | .
35 | O=C(c1nc2ccccn2c1CNCCCn1nnc2ccccc21)N1CCOCC1 | 21 | 7 | 13 | -5
36 | O=C(c1nc2ccccn2c1CNCCn1ccc2ccccc21)N1CCOCC1 | -20 | 1 | -18 | -9
37 | CCOC(=O)Cc1ccc(NC(=O)c2cccc([N+](=O)[O-])c2)cc1 | -14 | -1 | 6 | -4
38 | CCOC(=O)CSc1nnc(NC(=O)c2cccc([N+](=O)[O-])c2)s1 | . | 5 | 32 | 8

nr | MC4R antag cAMP | MC4R barr agon | cAMP nonselect | MC4R cAMP antag
31 | 34* | 6 | -3 | 6
32 | 9 | 1 | . | .
33 | 4 | 0 | . | .
34 | 42* | -2 | 22* | 50*
35 | 10 | -1 | . | .
36 | 32* | 4 | -10 | -21
37 | 9 | -2 | . | .
38 | 39* | -1 | 3 | 0

Just MC4R cAMP antag, HDAC3 inhib and NALP1 inh, for some of the entries so far:
| No. | SMILES | MC4R cAMP antag | HDAC3 inhib | NALP1 inh |
| --- | --- | --- | --- | --- |
| 37 | CCOC(=O)Cc1ccc(NC(=O)c2cccc([N+](=O)[O-])c2)cc1 | . | -1 | 6 |
| 38 | CCOC(=O)CSc1nnc(NC(=O)c2cccc([N+](=O)[O-])c2)s1 | 0 | 5 | 32 |
